Experimental findings from patent US12139488B2, “Pyrido[3,2-d]pyrimidine compounds uses thereof for treating a proliferative disease” (Universite de Montreal, priority 2021, dated 2024) are described below.

The chains behind the UniProt entries cited, without tags or fusion partners.
UniProt P15056, whole entry: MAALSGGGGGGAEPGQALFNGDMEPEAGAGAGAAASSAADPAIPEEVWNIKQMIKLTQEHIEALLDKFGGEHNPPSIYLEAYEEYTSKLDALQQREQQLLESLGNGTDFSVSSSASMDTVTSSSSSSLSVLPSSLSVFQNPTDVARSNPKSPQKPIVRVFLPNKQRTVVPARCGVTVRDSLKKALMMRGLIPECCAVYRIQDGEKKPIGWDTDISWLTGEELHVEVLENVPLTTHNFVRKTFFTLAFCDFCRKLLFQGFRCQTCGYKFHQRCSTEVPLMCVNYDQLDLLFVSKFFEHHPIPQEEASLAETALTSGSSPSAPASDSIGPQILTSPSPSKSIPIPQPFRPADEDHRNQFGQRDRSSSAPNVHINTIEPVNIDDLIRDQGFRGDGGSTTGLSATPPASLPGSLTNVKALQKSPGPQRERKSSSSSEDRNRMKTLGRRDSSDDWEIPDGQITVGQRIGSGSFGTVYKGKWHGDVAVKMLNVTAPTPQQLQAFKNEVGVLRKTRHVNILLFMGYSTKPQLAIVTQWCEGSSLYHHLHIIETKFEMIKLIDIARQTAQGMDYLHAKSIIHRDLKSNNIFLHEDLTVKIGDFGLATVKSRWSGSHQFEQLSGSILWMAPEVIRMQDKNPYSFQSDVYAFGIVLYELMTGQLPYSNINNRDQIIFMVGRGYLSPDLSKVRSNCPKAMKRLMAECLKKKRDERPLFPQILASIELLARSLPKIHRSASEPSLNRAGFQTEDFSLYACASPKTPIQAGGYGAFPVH
UniProt P04049, whole entry: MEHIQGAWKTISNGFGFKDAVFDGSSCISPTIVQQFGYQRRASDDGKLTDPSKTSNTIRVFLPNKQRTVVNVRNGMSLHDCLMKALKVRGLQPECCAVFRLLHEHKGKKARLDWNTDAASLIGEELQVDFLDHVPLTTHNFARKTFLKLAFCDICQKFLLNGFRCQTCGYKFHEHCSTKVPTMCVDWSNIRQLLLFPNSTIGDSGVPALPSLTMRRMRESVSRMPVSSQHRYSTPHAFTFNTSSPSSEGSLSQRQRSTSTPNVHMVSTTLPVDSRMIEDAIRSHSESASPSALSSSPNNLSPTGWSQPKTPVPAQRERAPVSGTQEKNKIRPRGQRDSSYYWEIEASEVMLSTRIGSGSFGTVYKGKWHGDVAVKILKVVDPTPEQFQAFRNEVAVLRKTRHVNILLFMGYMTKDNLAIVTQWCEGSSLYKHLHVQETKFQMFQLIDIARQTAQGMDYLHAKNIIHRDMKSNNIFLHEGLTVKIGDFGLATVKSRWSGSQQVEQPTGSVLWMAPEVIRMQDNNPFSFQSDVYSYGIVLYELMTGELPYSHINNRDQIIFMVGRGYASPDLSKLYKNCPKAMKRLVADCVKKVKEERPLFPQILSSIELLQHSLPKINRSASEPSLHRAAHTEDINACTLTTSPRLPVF

Where two headings read alike, the source gives them in different places.

The target in one assay is BRAF (Homo sapiens (Human), UniProt P15056). The assay can be described thus: BRAF kinase activity assay (ADP-Glo). (ADP-Glo first removes unused ATP, then detects ADP through luciferase.)
The target in another assay is CRAF (Homo sapiens, UniProt P04049). The assay can be described thus: CRAF kinase activity assay (ADP-Glo).
Assay [1] has as its system pERK in HCT-116 cells (KRAS G13D). As to the kind of experiment: Phospho-ERK inhibition (AlphaLISA SureFire Ultra p-ERK 1/2), HCT116. To be noted: for HCT116 pERK % Ymin (lowest value of the IC50 curve): Ymin above −20% = minimal or no paradoxical activation. The method in brief: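 p-ERK1/2 (Thr202/Tyr204) in lysates measured by AlphaLISA after 1 h compound exposure of overnight-plated cells (RPMI-1640, 5% FBS, 0.5% DMSO, ten concentrations, usually from 10 μM). Background from a trametinib control subtracted, inhibition normalised to vehicle, and IC50 fitted with a variable-slope four-parameter model.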
Background: Bead proximity is the source of the signal in Alpha formats.

Setting [2] is: read-out: Kinase IC50 (nM), BRAF biochemical kinase assay, BRAF.
Setting [3] is: read-out: Kinase IC50 (nM), CRAF biochemical kinase assay, CRAF.
The mark [4] stands for this setting: read-out: HCT116 pERK IC50, HCT116 cells.
The mark [5] stands for this setting: read-out: Kinase IC50 (nM) BRAF.
The mark [6] stands for this setting: read-out: Kinase IC50 (nM) CRAF.
[7] abbreviates: read-out: HCT116 pERK IC50, HCT116 cells, class symbol before the bracket.

As to `CN(CCCO)c1cccc2c1ncn2-c1ccc2ncnc(Nc3c(F)ccc(NS(=O)(=O)c4cccc(Cl)c4Cl)c3F)c2n1`, the figures for the IC50 (at BRAF (setting [2]); at CRAF (setting [3]); in assay [1] (setting [4])) were 1 to 10 nM, 10 to 50 nM and less than 0.5 µM, respectively. For the same compound, the “HCT116 pERK % Ymin (lowest value of the IC50 curve)” value (shortened to “HCT116 pERK % Ymin”) in assay [1] (HCT116 cells) is given as −5%.

As for `CNc1nnc(-c2nn(-c3ccc4ncnc(Nc5c(F)ccc(NS(=O)(=O)c6cccc(Cl)c6Cl)c5F)c4n3)c3ccccc23)o1`, the IC50 – broadly, the concentration that gives 50% inhibition – was in the range of 1 to 10 nM on BRAF (setting [5]), 10 to 50 nM on CRAF (setting [6]) and 1 to 10 µM in assay [1] (setting [7]). Moreover, the “HCT116 pERK Ymin %” value in assay [1] (HCT116 cells, Ymin in brackets) is recorded as 1%.

Take `O=S(=O)(Nc1ccc(F)c(Nc2ncnc3ccc(-n4cnc5c(N6CCO[C@@H](CO)C6)cccc54)nc23)c1F)c1cccc(Cl)c1Cl`: the values for the IC50 (at BRAF (setting [2]); on CRAF (setting [3]); in assay [1] (setting [4])) were less than 1 nM, less than 10 nM and less than 0.5 µM, respectively. For the same compound, the “HCT116 pERK % Ymin” value in assay [1] (HCT116 cells) is recorded as −11%.

For the compound `CO[C@@H]1CCN(c2cccc3c2ncn3-c2ccc3ncnc(Nc4c(F)ccc(NS(=O)(=O)c5cccc(Cl)c5Cl)c4F)c3n2)C1`, the IC50 was more than 10 nM on BRAF (setting [2]), 10 to 50 nM on CRAF (setting [3]) and less than 0.5 µM in assay [1] (setting [4]). The “HCT116 pERK % Ymin” value in assay [1] (HCT116 cells) is recorded as −10%.

`CCN1CCN(c2cccc3c2nnn3-c2ccc3ncnc(Nc4c(F)ccc(NS(=O)(=O)c5cccc(Cl)c5Cl)c4F)c3n2)CC1`: the IC50 is less than 1 nM on BRAF (setting [2]), less than 10 nM on CRAF (setting [3]) and less than 0.5 µM in assay [1] (setting [4]). The “HCT116 pERK % Ymin” value in assay [1] (HCT116 cells) is −3%.

On to `O=S(=O)(Nc1ccc(F)c(Nc2ncnc3ccc(-n4nnc5c(N6C7CCC6CC(CCO)C7)cccc54)nc23)c1F)c1cccc(Cl)c1Cl` (stereo not shown), for which the IC50 on BRAF (setting [2]) is less than 1 nM; on CRAF (setting [3]), 10 to 50 nM; in assay [1] (setting [4]) it was less than 0.5 µM. Further, the “HCT116 pERK % Ymin” value in assay [1] (HCT116 cells) came out at 4%.

On to `COCCCN(C)c1cccc2c1ncn2-c1ccc2ncnc(Nc3c(F)ccc(NS(=O)(=O)c4cccc(Cl)c4Cl)c3F)c2n1`, for which the 50% inhibitory concentration (IC50) on BRAF (setting [2]) is more than 10 nM; on CRAF (setting [3]) it was more than 50 nM; in assay [1] (setting [4]) it was 0.5 to 1 µM. The “HCT116 pERK % Ymin” value in assay [1] (HCT116 cells) is recorded as −16%.

Take `COC1(C)CCN(c2cccc3c2nnn3-c2ccc3ncnc(Nc4c(F)ccc(NS(=O)(=O)c5cccc(Cl)c5Cl)c4F)c3n2)CC1`: the results for the IC50 (at BRAF (setting [2]); at CRAF (setting [3]); in assay [1] (setting [4])) were 1 to 10 nM, 10 to 50 nM and 1 to 10 µM, respectively. Besides, in assay [1] (HCT116 cells), the “HCT116 pERK % Ymin” value is −7%.

Turning to `Nc1cccc2c1ncn2-c1ccc2ncnc(Nc3c(F)ccc(NS(=O)(=O)c4cccc(Cl)c4Cl)c3Cl)c2n1`, the IC50 on BRAF (read-out: Kinase IC50 (nM) BRAF, Table 5) was more than 10 nM; at CRAF (read-out: Kinase IC50 (nM) CRAF, Table 5) it was 10 to 50 nM; in assay [1] (read-out: HCT116 pERK IC50, HCT116 cells, Table 5), less than 0.5 µM. In addition, in assay [1] (lowest value of the curve, HCT116, Table 5), the “HCT116 pERK Ymin %” value is given as −10%.

Consider `O=S(=O)(Nc1ccc(F)c(Nc2ncnc3ccc(-n4cnc5c(N6C7CCC6COC7)cccc54)nc23)c1F)c1cccc(Cl)c1Cl`, for which the half-inhibitory concentration (IC50) on BRAF (setting [2]) was 1 to 10 nM; at CRAF (setting [3]), 10 to 50 nM; in assay [1] (setting [4]) it was less than 0.5 µM. Also, in assay [1] (HCT116 cells), the “HCT116 pERK % Ymin” value was 0%.

Consider `Cc1c(F)cccc1S(=O)(=O)Nc1ccc(F)c(Nc2ncnc3ccc(-n4nc(C(=O)NCC5(O)CC5)c5ccccc54)nc23)c1F`, for which the 50% inhibitory concentration (IC50) was 1 to 10 nM on BRAF (setting [5]), 10 to 50 nM at CRAF (setting [6]) and 0.5 to 1 µM in assay [1] (setting [7]). Further, the “HCT116 pERK Ymin %” value in assay [1] (HCT116 cells, Ymin in brackets) was −2.0%.

In the case of `Cc1c(Cl)cccc1S(=O)(=O)Nc1ccc(F)c(Nc2ncnc3ccc(-n4nc(C(=O)N5CCN(C)CC5)c5ccccc54)nc23)c1F`, the IC50 on BRAF (read-out: Kinase IC50 (nM) BRAF, tested form: formate) is less than 1 nM; at CRAF (read-out: Kinase IC50 (nM) CRAF, tested form: formate), 10 to 50 nM; in assay [1] (read-out: HCT116 pERK IC50, HCT116 cells, class symbol before the bracket, tested form: formate), less than 0.5 µM. Further, in assay [1] (HCT116 cells, Ymin in brackets, tested form: formate), the “HCT116 pERK Ymin %” value is reported as −3.5%.

Take `O=S(=O)(Nc1ccc(F)c(Nc2ncnc3ccc(-n4cnc5c(N6CC(F)(F)C6)cccc54)nc23)c1F)c1cccc(Cl)c1Cl`: the half-maximal inhibitory concentration (IC50) at BRAF (setting [2]) was more than 10 nM; on CRAF (setting [3]), 10 to 50 nM; in assay [1] (setting [4]), 0.5 to 1 µM. Also, the “HCT116 pERK % Ymin” value in assay [1] (HCT116 cells) was −6%.

Turning to `Cc1c(F)cccc1S(=O)(=O)Nc1ccc(F)c(Nc2ncnc3ccc(-n4nc(C(=O)NCc5ccccn5)c5ccccc54)nc23)c1F`, the concentration for half-maximal inhibition (IC50) at BRAF (setting [5]) is 1 to 10 nM; on CRAF (setting [6]), 10 to 50 nM; in assay [1] (setting [7]), less than 0.5 µM. The “HCT116 pERK Ymin %” value in assay [1] (HCT116 cells, Ymin in brackets) was −6.2%.

On to `COc1ccc(S(=O)(=O)Nc2ccc(F)c(Nc3ncnc4ccc(-n5cnc6ccccc65)nc34)c2F)c(C)c1Cl`, for which the IC50 on BRAF (setting [5]) was 1 to 10 nM; on CRAF (setting [6]), less than 10 nM; in assay [1] (read-out: HCT116 pERK IC50 in μM, HCT116 cells, 1 h treatment) it was less than 0.5 µM. The “HCT116 pERK Ymin %” value in assay [1] (lowest % inhibition value of the IC50 curve, HCT116) is −5%.

Regarding `Cc1c(Cl)cccc1S(=O)(=O)Nc1ccc(F)c(Nc2ncnc3ccc(-n4cc(C(=O)N5CCOCC5)c5ccccc54)nc23)c1F`, the figures for the 50% inhibitory concentration (IC50) (on BRAF (setting [5]); on CRAF (setting [6]); in assay [1] (setting [7])) were less than 1 nM, 10 to 50 nM and less than 0.5 µM, respectively. Further, in assay [1] (HCT116 cells, Ymin in brackets), the “HCT116 pERK Ymin %” value is reported as −4.4%.
